Results taken from patent EP4796557A1, “POLYPEPTIDE, BIOACTIVE CONJUGATE, AND PREPARATION METHOD THEREFOR AND USE THEREOF” (priority 2023, dated 2025).

Legend:
NCI-N87 cells = experiment: In vitro killing assay of the anti-Her2-ADC against NCI-N87 tumor cells (CTG); assay type: cell-based; conditions: NCI-N87, in vitro proliferation inhibition, CTG (Table 21)
JIMT-1 cells = experiment: In vitro killing assay of the anti-Her2-ADC against JIMT-1 tumor cells (CTG); assay type: cell-based; conditions: JIMT-1, in vitro proliferation inhibition, CTG (Table 20)

Row | Substance | IC50 (NCI-N87 cells) | IC50 (JIMT-1 cells)
1 | anti-Her2-ADC-12 | 5.8 nM | 
2 | anti-Her2-ADC-14 | 0.472 nM | 
3 | anti-Her2-ADC-08 |  | 2.59 nM
